{"source": "patent US20050239864A1", "about": "“Novel tumor-selective chemotherapeutic agents” (priority 2004, published 2005)", "key": {"Walker-256 carcinoma [1]": {"system": "Walker-256 carcinoma", "assay": "Radio-labelled MTX-HSA concentration in tumor tissue", "assay_type": "in vivo, rats", "settings": "approximate conversion", "protocol": "The concentration of MTX-HSA in tumor tissue was measured using radio-labelled MTX-HSA. MTX-HSA was given to female rates bearing the Walker-256 carcinoma at a dose of 13.2 μmol/kg MTX-HSA, which corresponds to 6 mg/kg of MTX (Wosikowski et al., Clin. Cancer Res. 2003, 9, 1917-1926). At 1 h after administration, the MTX-HSA concentration measured was 25 nmol/g tumor tissue, which is approximately 25 μM. At 3 h, the concentration in the tumor reached its maximum (29 nmol/g tumor tissue), which is approximately 29 μM. At 8 and 48 h, […] μM and […] μM of MTX-HSA, respectively, were measured."}, "[2]": {"system": "malignant mesothelioma of the pleura or peritoneum", "settings": "cited from earlier work"}, "Walker-256 carcinoma [3]": {"system": "Walker-256 carcinoma", "settings": "cited from earlier work"}, "[4]": {"system": "metastatic renal cell carcinoma", "settings": "17 patients, 50 mg/m^2 once a week i.v.; cited from earlier work"}, "human tumor xenografts": {"system": "human tumor xenografts", "settings": "human tumor xenografts s.c. in nude mice; cited from earlier work"}, "[5]": {"settings": "cited from earlier work"}, "[6]": {"settings": "23/29 patients assessed after 8-12 weeks"}, "[7]": {"settings": "weekly i.v. infusion of 50 mg/m^2"}}, "note": "Where two headings read alike, the source gives them in different places.", "data": [{"substance": "MTX-HSA", "values": [{"measurement": "MTX-HSA concentration in tumor tissue", "setting": "Walker-256 carcinoma [1]; 1 h after 13.2 μmol/kg MTX-HSA", "value": "approximately 25 μM"}, {"measurement": "MTX-HSA concentration in tumor tissue (maximum)", "setting": "Walker-256 carcinoma [1]; 3 h after 13.2 μmol/kg MTX-HSA", "value": "approximately 29 μM"}, {"measurement": "patients with MR (minor response)", "setting": "[2]; [6]", "value": 1}, {"measurement": "patients with NC>3 month", "setting": "[2]; [6]", "value": 11}, {"measurement": "patients with PR", "setting": "[2]; [6]", "value": 1}, {"measurement": "patients with early disease progression within the first 2 months", "setting": "[2]; [6]", "value": 6}, {"measurement": "time to progression, mean", "setting": "[2]; weekly 50 mg/m^2", "value": 3.5, "unit": "months"}, {"measurement": "time to progression, median", "setting": "[2]; weekly 50 mg/m^2", "value": 4.3, "unit": "months"}, {"measurement": "tolerability", "setting": "[2]; weekly 50 mg/m^2", "value": "generally well tolerated"}, {"measurement": "grade 3 stomatitis", "setting": "[2]; [7]", "value": 10, "unit": "%"}, {"measurement": "grade 3 thrombopenia", "setting": "[2]; [7]", "value": 2, "unit": "%"}, {"measurement": "grade 4 stomatitis", "setting": "[2]; [7]", "value": 2, "unit": "%"}, {"measurement": "grade 4 thrombopenia", "setting": "[2]; [7]", "value": 12, "unit": "%"}, {"measurement": "MTX-HSA concentration in tumor tissue", "setting": "Walker-256 carcinoma [3]; 1 h after 13.2 μmol/kg MTX-HSA", "value": 25, "unit": "nmol/g tumor tissue"}, {"measurement": "MTX-HSA concentration in tumor tissue (maximum)", "setting": "Walker-256 carcinoma [3]; 3 h after 13.2 μmol/kg MTX-HSA", "value": 29, "unit": "nmol/g tumor tissue"}, {"measurement": "duration of stable disease", "setting": "[4]", "value": "up to 8 months"}, {"measurement": "median duration of stable disease", "setting": "[4]", "value": 121, "unit": "days"}, {"measurement": "objective responses", "setting": "[4]", "value": "no objective responses were seen"}, {"measurement": "patients with stable disease (stabilization>2 months)", "setting": "[4]", "value": "Eight"}, {"measurement": "antitumor activity in vivo", "setting": "human tumor xenografts", "value": "dose-dependent antitumor activity"}, {"measurement": "patients with tumor responses", "setting": "[5]; Phase I, 17 patients", "value": "three"}, {"measurement": "tolerability", "setting": "[5]; Phase I, 17 patients", "value": "well tolerated"}, {"measurement": "response duration, minor response", "setting": "[5]; one patient with pleural mesothelioma, ongoing", "value": 31, "unit": "months"}, {"measurement": "response duration, partial response", "setting": "[5]; one patient with renal cell carcinoma, ongoing", "value": 30, "unit": "months"}, {"measurement": "response duration, minor response", "setting": "[5]; one patient with renal cell carcinoma, until progression", "value": 14, "unit": "months"}]}]}
